Experimental data from US20050232860A1, “Use of edg-receptor agonists for the treatment of hypertension” (priority 2001, published 2005).
Like-named read-outs stand apart in the source and are kept apart here.

Tested on: cannabinoid CB1 binding sites
Settings: 10 nM radioligand; for binding of [^3H]SR141716A: n=4

## Cc1c(C(=O)NN2CCCCC2)nn(-c2ccc(Cl)cc2Cl)c1-c1ccc(Cl)cc1 [[^3H]SR141716A]
Absence of 3 μM CP55,940
  binding of [^3H]SR141716A as % of the radioactivity added to each assay: 4.64±0.13%
  binding of [^3H]SR141716A: 84.1±4.8 fmol/mg protein
Presence of 3 μM CP55,940
  binding of [^3H]SR141716A as % of the radioactivity added to each assay: 4.71±0.12%
  binding of [^3H]SR141716A: 85.2±4.1 fmol/mg protein
